Reference: patent US20240173295A1, “A STABLE, EMULSION-FORMING LIQUID COMPOSITION COMPRISING AMINO ACIDS” (Brain Luxury Inc., priority 2021, published 2024)

Assay: Chemical stability of liquid composition on storage
Assay type: physicochemical
Conditions: stored at 6° C. or 22° C.
Description: The chemical stability of a disclosed liquid composition stored at 6° C. or 22° C. was evaluated at 2 months and three months. The microbial stability and shelf life was also evaluated. A liquid composition having a pH of about 3.7 was subjected to high pressure processing at 6000 bar for two cycles of 5 minutes.

Vitamin E
amount in liquid composition at 2 Months (chemical stability): 5.6 mg/60 mL
